Assays:
[1] = system: ARTKQTARK(acetyl)STGGK(acetyl)A
[2] = system: SRSRDRKRRSRS
[3] = system: NPKK(Me3)SRSREHRR
[4] = system: NPKRSRSR(Me1)EHRRHRSR
[5] = system: SRDRRRRSR
[6] = system: NPKKSKSKEHRR
[7] = system: NPR(me1)RSRSKEHKK
[8] = system: SHSRNPRRSRSREHRR
[9] = system: RKR
[10] = system: APAPKKGSKKAVTKA
[11] = system: DRKRR
[12] = system: NPR(me2aym)RSRSKEHKK
[13] = system: SHSKNPRRSRSREHRR
[14] = system: SHSRSRSRDRKRRSRS
[15] = system: DRKRRSRSRDRRNR
[16] = system: ARTK(me3)QTARK(acetyl)STGGK(acetyl)A
[17] = system: ARTKQTARK(me3)STGGKA
[18] = system: KR
[19] = system: SRDRKRRSR
[20] = system: NPKKSKSKEHKK
[21] = system: NPKRSRSREHKK
[22] = system: GSKKAVTKAQKKDSK
[23] = system: SHSRSRSR(Me2sym)DRKRRSRS (peptide a)
[24] = system: SRDRARRSR
[25] = system: SGR(me2asym)GKQGGKARAKTR
[26] = system: ARTKQTARK(me1)STGGKA
[27] = system: NPKRSRSREHRRHR
[28] = system: SHSRNPKRSRSREHRR
[29] = system: NPKRSRSREHRRH
[30] = system: NPKRSRS
[31] = system: NPKRSRSREHR
[32] = system: NPKRSRSREH
[33] = system: NPKRSRSR(Me2sym))EHRRHRSR (peptide c)
[34] = system: RSRSRDRKRRSRS
[35] = system: NPKR
[36] = system: NPKRSRSEHRRHRSR
[37] = system: ARTKQTARK(me2)STGGKA
[38] = system: DRKRRSRSRDRR
[39] = system: SHSKNPKRSRSREHRR (peptide e)
[40] = system: ARTKQTARKSTGGKA
[41] = system: SRSRSRDRKRRSRS
[42] = system: RDKENRHRKRSHSRSRS
[43] = system: NPKRSRSKEHKK
[44] = system: SHSRSR(Me2sym)SRDRKRRSRS (peptide b)
[45] = system: NPR(me2sym)RSRSKEHKK
[46] = system: SRDRK(Me3)RRSR
[47] = system: NPKRSRSREHRRHRS
[48] = system: SGRGKQGGKARAKTR
[49] = system: QLATKAARKSAPATG
[50] = system: RDRKRRS
[51] = system: NPKKSKSREHRR
[52] = system: NPKRSRSREHRR (peptide d)
[53] = system: HSRSRSRDRKRRSRS
[54] = system: NPK(me3)RSRSKEHKK
[55] = system: PKR
[56] = system: NPKRS
[57] = system: RSRDRKRRSRS
[58] = system: NPKRSRSR(Me2asym)EHRRHRSR
[59] = system: NPKRSRSRE

“N-terminally His6-tagged human Jmjd6 (residues 1-343)” was tested, and the “activity (hydroxylation of the peptide by Jmjd6, MALDI-TOF MS)” value (from here on “activity”) [1] was “no”, the “activity” value [2] was “no” and the “activity” value [3] was “yes”. For the same substance, the “activity” value [4] was “yes”, the “activity” value [5] was “no” and the “activity” value [6] was “double”. The “activity” value [7] was “no”, the “activity” value [8] was “no” and the “activity” value [9] was “no”. The “activity” value [10] was “+16”, the “activity” value [11] was “no” and the “activity” value [12] was “no”. For the same substance, the “activity” value [13] was “yes”, the “activity” value [14] was “yes” and the “activity” value [15] was “no”. The “activity” value [16] was “no”, the “activity” value [17] was “no” and the “activity” value [18] was “no”. The “activity” value [19] was “no”, the “activity” value [20] was “double” and the “activity” value [21] was “yes”. The “activity” value [22] was “+16”, the “activity” value [23] was “yes” and the “activity” value [24] was “no”. The “activity” value [25] was “+16”, the “activity” value [26] was “no” and the “activity” value [27] was “yes”. The “activity” value [28] was “yes”, the “activity” value [29] was “yes” and the “activity” value [30] was “no”. The “activity” value [31] was “moderate”, the “activity” value [32] was “no” and the “activity” value [33] was “yes”. The “activity” value [34] was “no”, the “activity” value [35] was “no” and the “activity” value [36] was “yes”. The “activity” value [37] was “no”, the “activity” value [38] was “no” and the “activity” value [39] was “double hydroxylation”. For the same substance, the “activity” value [40] was “yes”, the “activity” value [41] was “no” and the “activity” value [42] was “yes”. For the same substance, the “activity” value [43] was “yes”, the “activity” value [44] was “yes” and the “activity” value [45] was “no”. The “activity” value [46] was “no”, the “activity” value [47] was “yes” and the “activity” value [48] was “+16”. For the same substance, the “activity” value [49] was “no”, the “activity” value [50] was “no” and the “activity” value [51] was “double”. The “activity” value [52] was “yes”, the “activity” value [53] was “no” and the “activity” value [54] was “no”. The “activity” value [55] was “no”, the “activity” value [56] was “no” and the “activity” value [57] was “no”. For the same substance, the “activity” value [58] was “yes” and the “activity” value [59] was “no”.

Source: patent US20110130449
